Assay results from patent US20250170151A1 (REMEDY PHARMACEUTICALS, INC., priority 2022, published 2025).

Assay: Glyburide solubility in intravenous dosing solutions
Type: physicochemical
Conditions: formulations of the present disclosure at three-fold higher concentrations

loss of glyburide due to precipitation or sorption: no detectable loss
SMILES: COc1ccc(Cl)cc1C(=O)NCCc1ccc(S(=O)(=O)NC(=O)NC2CCCCC2)cc1 [glyburide, 5-chloro-N-(4-[N-(cyclohexylcarbamoyl)sulfamoyl]phenethyl)-2-methoxybenzamide]
